Only a part is listed here, and it is no random draw. Some of these compounds have results that are not shown, active ones among them. Calls of active or inactive are those of the source.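 The calls were made as follows: active = inhibition above a per-campaign cutoff equal to the mean of compounds falling between control-based bounds plus 3 SD (cut at about 20% in these data); inactive = the rest.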

By UniProt entry, the sequences of proteins in these tests, tags left out. Residues count along the entry.
UniProt O14672, 214-748 limits assumed: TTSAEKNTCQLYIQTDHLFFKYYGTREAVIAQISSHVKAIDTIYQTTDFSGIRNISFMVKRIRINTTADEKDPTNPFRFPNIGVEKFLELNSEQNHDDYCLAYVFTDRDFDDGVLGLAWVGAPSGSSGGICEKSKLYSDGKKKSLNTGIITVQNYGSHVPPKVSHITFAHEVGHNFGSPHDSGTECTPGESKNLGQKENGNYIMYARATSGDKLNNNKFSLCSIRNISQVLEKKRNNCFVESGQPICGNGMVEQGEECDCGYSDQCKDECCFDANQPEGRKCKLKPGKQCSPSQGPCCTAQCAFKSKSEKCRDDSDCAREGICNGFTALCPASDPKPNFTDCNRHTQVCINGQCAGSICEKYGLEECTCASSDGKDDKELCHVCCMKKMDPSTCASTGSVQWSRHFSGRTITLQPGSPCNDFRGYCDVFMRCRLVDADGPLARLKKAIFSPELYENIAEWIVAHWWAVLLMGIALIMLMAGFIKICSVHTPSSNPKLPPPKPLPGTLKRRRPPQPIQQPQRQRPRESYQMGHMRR

This test addresses Disintegrin and metalloproteinase domain-containing protein 10 (Homo sapiens) (UniProt O14672). Put plainly: human ADAM10 inhibitors, primary screen, biochemical, QFRET, HTS (AID 720582).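 Also: 0% = DMSO wells while the 100% control is not disclosed.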 The following applies: recombinant ADAM10, EDANS/DABCYL FRET peptide cleavage, 3 h; at 7 µM; active compounds read high.
As a reminder, the inhibition is the relative decrease from the control value, in per cent. On to `C=CCN1CCN(CCOC(=O)C(O)(c2ccccc2)c2ccccc2)CC1`, for which the inhibition is inactive: -1.51%.

Take `O=C(NCC1(N2CCCCC2)CCCCC1)c1cc(F)c(F)cc1Cl`: the inhibition is inactive: -0.28%. Turning to `Cc1cc(C(=O)NCC2(N3CCCCC3)CCCCC2)ccc1[N+](=O)[O-]`, the inhibition is inactive: 2.69%. The same measure for `CCN1CCCC(OC(=O)C2(O)c3ccccc3C=Cc3ccccc32)C1` (stereo unspecified): inactive: 6.75%; for `O=C(NCC1(N2CCCCC2)CCCCC1)c1cccc(Br)c1`: inactive: 5.56%. For `COc1ccc(C(=O)NCC2(N(C)C)CCCCC2)cc1`, the inhibition is inactive: 4.63%. The same measure for `Cc1ccccc1C(=O)NCC1(N2CCCCC2)CCCCC1`: inactive: 8.53%; for `CN(C)C1CCCC1OC(=O)C(O)(c1ccccc1)c1ccccc1` (stereo unspecified): inactive: -6.85%. The same measure for `CN(C)c1ccc(C(=O)NCC2(N(C)C)CCCCC2)cc1`: inactive: -1.93%; for `CC(C)N1C(=O)CC2(CCN(CCOC(=O)C(O)(c3ccccc3)c3ccccc3)CC2)C1=O`: inactive: -0.68%; for `CCN(CC)CC(C)C(C)OC(=O)C(O)(c1ccccc1)c1ccccc1` (stereo unspecified): inactive: -1.12%. The same measure for `COc1cc(SC)ccc1C(=O)NCC1(N(C)C)CCCCC1`: inactive: -0.07%; for `Cc1ccc(C(=O)NCC2(N3CCCCC3)CCCCC2)cc1`: inactive: 0.88%; for `O=C(NCC1(N2CCCCC2)CCCCC1)c1cc([N+](=O)[O-])ccc1Cl`: inactive: 4.22%. Turning to `CN1[C@@H]2CC[C@H]1CC(OC(=O)C(O)(c1ccccc1)c1ccccc1)C2` (stereo partly specified), the inhibition is inactive: -2.17%. Take `COc1ccc(Br)c(C(=O)NCC2(N3CCCCC3)CCCCC2)c1`: the inhibition is inactive: -5.84%. The same measure for `C=C(C)C#CC(O)(C(=O)OC1CCN(C)CC1)c1ccccc1` (stereo unspecified): inactive: -9.92%; for `CN(C)c1cccc(C(=O)NCC2(N(C)C)CCCCC2)c1`: inactive: -18.7%; for `CC(C)Oc1ccc(C(=O)NCC2(N(C)C)CCCCC2)cc1`: inactive: -3.1%. With `O=C(OCCN1CCCC1)C(O)(c1ccccc1)c1ccccc1` the figure was inactive: -13.4%; with `O=C(OC1CN2CCC1CC2)C(CO)(c1ccccc1)c1ccccc1` (stereo unspecified), inactive: -0.34%. The same measure for `COc1cccc(C(=O)NCC2(N3CCCCC3)CCCCC2)c1`: inactive: -10.3%; for `COc1ccc(Cl)cc1C(=O)NCC1(N(C)C)CCCCC1`: inactive: 7.99%. Consider `O=C(NCC1(N2CCCCC2)CCCCC1)c1cccc(Cl)c1`, for which the inhibition is inactive: -12.7%. As to `CN(C)C1(CNC(=O)c2ccc(Br)cc2)CCCCC1`, the inhibition was inactive: 1.32%. With `COc1cc(C(=O)NCC2(N(C)C)CCCCC2)c([N+](=O)[O-])cc1OC` the figure was inactive: -2.05%.

These data come from PubChem BioAssay AID720582 (The Scripps Research Institute Molecular Screening Center, 2013).
